Laboratory results from PubChem BioAssay (NCI).
Some results for these compounds are left out of this collection, so the calls shown say nothing about other tests.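 In this assay, cells in 96-well plates receive the compound at five concentrations for 48 hours. Endpoints are linearly interpolated between the surrounding concentrations. GI50 marks 50% less growth. TGI denotes the concentration required for complete inhibition of growth.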

Tests used:
Test in all cases: DTP human tumour cell line panel, 48 h
[1] = test system: MALME-3M melanoma
[2] = test system: MOLT-4 leukemia
[3] = test system: NCI/ADR-RES ovarian
[4] = test system: HT29 colon
[5] = test system: HS 578T breast
[6] = test system: T-47D breast
[7] = test system: MDA-MB-435
[8] = test system: NCI-H226 lung
[9] = test system: SF-268 CNS
[10] = test system: M14 melanoma
[11] = test system: NCI-H460 lung
[12] = test system: PC-3 prostate
[13] = test system: HOP-92 NSCLC
[14] = test system: SK-OV-3 ovarian
[15] = test system: LOX IMVI melanoma
[16] = test system: CAKI-1 renal
[17] = test system: HL-60(TB) leukemia
[18] = test system: UACC-62 melanoma
[19] = test system: SR leukemia
[20] = test system: 786-0 renal
[21] = test system: OVCAR-3 ovarian
[22] = test system: UO-31 renal
[23] = test system: OVCAR-8 ovarian
[24] = test system: SNB-19 CNS
[25] = test system: ACHN renal
[26] = test system: SF-295 CNS
[27] = test system: U251 CNS
[28] = test system: RXF 393 renal
[29] = test system: EKVX NSCLC
[30] = test system: TK-10 renal
[31] = test system: COLO 205 colon
[32] = test system: HOP-62 NSCLC
[33] = test system: NCI-H23 lung
[34] = test system: SK-MEL-5 melanoma
[35] = test system: HCT-116 colon
[36] = test system: HCC-2998 colon
[37] = test system: UACC-257 melanoma
[38] = test system: IGROV1 ovarian
[39] = test system: HCT-15 colon
[40] = test system: OVCAR-4 ovarian
[41] = test system: K-562 leukemia
[42] = test system: SW-620 colon
[43] = test system: MDA-N
[44] = test system: NCI-H522 lung
[45] = test system: SK-MEL-2 melanoma
[46] = test system: CCRF-CEM leukemia
[47] = test system: MDA-MB-231 breast
[48] = test system: SNB-75 CNS
[49] = test system: RPMI-8226 leukemia
[50] = test system: MCF7 breast
[51] = test system: SF-539 CNS
[52] = test system: SK-MEL-28 melanoma
[53] = test system: A549 NSCLC
[54] = test system: BT-549 breast
[55] = test system: SN12C renal
[56] = test system: KM12 colon
[57] = test system: OVCAR-5 ovarian
[58] = test system: DU-145 prostate
[59] = test system: A498 renal

C/C=C\C(O)(C(=O)O[C@@H]1C2CCN(CC2)[C@@H]1C)C1CCCC1 (stereo partly drawn)
GI50 [1]: > 100 µM
TGI [1]: > 100 µM
GI50 [2]: > 100 µM
TGI [2]: > 100 µM
GI50 [3]: > 100 µM
TGI [3]: > 100 µM
GI50 [4]: > 100 µM
TGI [4]: > 100 µM
GI50 [5]: 13.5 µM
TGI [5]: > 100 µM
GI50 [6]: > 100 µM
TGI [6]: > 100 µM
GI50 [7]: > 100 µM
TGI [7]: > 100 µM
GI50 [8]: > 100 µM
TGI [8]: > 100 µM
GI50 [9]: > 100 µM
TGI [9]: > 100 µM
GI50 [10]: > 100 µM
TGI [10]: > 100 µM
GI50 [11]: > 100 µM
TGI [11]: > 100 µM
GI50 [12]: > 100 µM
TGI [12]: > 100 µM
GI50 [13]: > 100 µM
TGI [13]: > 100 µM
GI50 [14]: > 100 µM
TGI [14]: > 100 µM
GI50 [15]: > 100 µM
TGI [15]: > 100 µM
GI50 [16]: > 100 µM
TGI [16]: > 100 µM
GI50 [17]: > 100 µM
TGI [17]: > 100 µM
GI50 [18]: > 100 µM
TGI [18]: > 100 µM
GI50 [19]: > 100 µM
TGI [19]: > 100 µM
GI50 [20]: > 100 µM
TGI [20]: > 100 µM
GI50 [21]: > 100 µM
TGI [21]: > 100 µM
GI50 [22]: 97.5 µM
TGI [22]: > 100 µM
GI50 [23]: > 100 µM
TGI [23]: > 100 µM
GI50 [24]: > 100 µM
TGI [24]: > 100 µM
GI50 [25]: > 100 µM
TGI [25]: > 100 µM
GI50 [26]: > 100 µM
TGI [26]: > 100 µM
GI50 [27]: > 100 µM
TGI [27]: > 100 µM
GI50 [28]: > 100 µM
TGI [28]: > 100 µM
GI50 [29]: > 100 µM
TGI [29]: > 100 µM
GI50 [30]: > 100 µM
TGI [30]: > 100 µM
GI50 [31]: > 100 µM
TGI [31]: > 100 µM
GI50 [32]: > 100 µM
TGI [32]: > 100 µM
GI50 [33]: > 100 µM
TGI [33]: > 100 µM
GI50 [34]: > 100 µM
TGI [34]: > 100 µM
GI50 [35]: > 100 µM
TGI [35]: > 100 µM
GI50 [36]: > 100 µM
TGI [36]: > 100 µM
GI50 [37]: > 100 µM
TGI [37]: > 100 µM
GI50 [38]: > 100 µM
TGI [38]: > 100 µM
GI50 [39]: > 100 µM
TGI [39]: > 100 µM
GI50 [40]: > 100 µM
TGI [40]: > 100 µM
GI50 [41]: > 100 µM
TGI [41]: > 100 µM
GI50 [42]: > 100 µM
TGI [42]: > 100 µM
GI50 [43]: > 100 µM
TGI [43]: > 100 µM
GI50 [44]: > 100 µM
TGI [44]: > 100 µM
GI50 [45]: > 100 µM
TGI [45]: > 100 µM
GI50 [46]: > 100 µM
TGI [46]: > 100 µM
GI50 [47]: > 100 µM
TGI [47]: > 100 µM
GI50 [48]: > 100 µM
TGI [48]: > 100 µM
GI50 [49]: > 100 µM
TGI [49]: > 100 µM
GI50 [50]: > 100 µM
TGI [50]: > 100 µM
GI50 [51]: > 100 µM
TGI [51]: > 100 µM
GI50 [52]: > 100 µM
TGI [52]: > 100 µM
GI50 [53]: > 100 µM
TGI [53]: > 100 µM
GI50 [54]: > 100 µM
TGI [54]: > 100 µM
GI50 [55]: > 100 µM
TGI [55]: > 100 µM
GI50 [56]: > 100 µM
TGI [56]: > 100 µM
GI50 [57]: > 100 µM
TGI [57]: > 100 µM
GI50 [58]: > 100 µM
TGI [58]: > 100 µM
GI50 [59]: > 100 µM
TGI [59]: > 100 µM
